Measured values published in the Kinase Knowledgebase extract (Sharma et al. 2016).

Legend:
[1] = tested on: EGFR (human), P00533 [delE746-A750]; details: hcc827
[2] = tested on: EGFR (Human), P00533 [T790M/L858R]; details: h1975

C=CC(=O)Nc1cccc(Oc2nc(Nc3ccc(OC)cc3OC)ncc2Br)c1
GI50 [1]: 100 to 500 nM

C=CC(=O)Nc1cccc(Nc2nc(Nc3ccc(OC)c(OC)c3OC)ncc2Cl)c1
GI50 [1]: 100 to 500 nM | GI50 [2]: 100 to 500 nM

C=CC(=O)Nc1cccc(Oc2nc(Nc3ccc(OC)cc3OC)ncc2Cl)c1
GI50 [1]: 100 to 500 nM
